Binding of CDR-mutated scFvs to a peptide of the spike HR2 region

Data: MIT Lincoln Laboratory AlphaSeq set, Li et al. 2023, doi:10.1038/s41467-023-39022-2, as distributed in FLAb.

Binding partner: SARS-CoV-2 spike HR2 peptide, sequence PDVDLGDISGINAS.

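The starting antibody came from a phage panning campaign against this peptide. This is the validation round: designs drawn from the data on random variants, tested in the same kind of assay. Group labels follow the data file (Ctrl: baseline library sampled from a position-specific scoring matrix, with some repeated check sequences; Rand: our label for a block that the file lists under HC and that is probably the random mutants of the ten best first-round binders; GP: Gaussian process model; GPLM: also part of the Gaussian process libraries; HC: hill climbing; Gen: genetic algorithm; Gibbs: Gibbs sampling; a sequence that several methods proposed may carry one label only). AlphaSeq pools MATa yeast showing the antibodies with MATalpha yeast showing the peptide. Binding brings cells together so that they mate, and sequencing counts the barcode pairs among the diploids. Each replicate has its own calibration line, from reference interactions of the BCL2 family. There are six technical replicates.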

Ab-14 is the parent antibody, in scFv form: VH, then a (GGGGS)3 linker, then VL. The light chain is unchanged in all variants.
VH: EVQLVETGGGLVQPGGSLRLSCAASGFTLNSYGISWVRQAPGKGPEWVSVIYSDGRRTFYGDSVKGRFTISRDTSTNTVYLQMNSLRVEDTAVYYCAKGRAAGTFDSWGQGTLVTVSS
VL: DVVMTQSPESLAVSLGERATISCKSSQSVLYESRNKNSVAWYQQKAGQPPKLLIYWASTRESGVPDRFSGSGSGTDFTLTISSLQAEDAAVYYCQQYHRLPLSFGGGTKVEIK

Changes read parent residue, position, new residue, counted from the first residue of the VH shown. This list holds designs with at most six substitutions. Values are apparent Kd, the geometric mean of the replicates that gave a signal; lower means stronger binding. "nd" marks a missing value. The strain was present, yet no cells mated with the target were sequenced in any replicate, which points to weak or no binding. A sequence measured in both rounds can read differently, since the two assays cover different ranges. The authors' rule: three or more of the six replicates give a measured affinity, fewer mean a poor binder. Some sequences occur more than once in the pool; their replicates are pooled. Nonspecific signal, from three strains lacking the peptide, appeared in 1% of pairings of all heavy chain designs, centred on 120 nM (5% of these signals below 7.0 nM); values are not corrected for it. The control count says in how many pairings with the empty strains this scFv gave a signal. Of ten entries with the parent sequence, four were seen in most replicates (averages 2.2 nM to 240 nM), three in one and three in none, so single entries are noisy.

changes,group,Kd,seen in,control signals
T28E+S31Q+G61A,GPLM_HC,5.4 nM,6/6,0/18
G103K+S107V,Ctrl,nd,0/6,0/18
T28W+S31E+G61T+R100E+A101Q,GP_HC,nd,0/6,0/18
F27D+T28S+G61A+A101T,GP_Gibbs,20 nM,6/6,1/18
T28E+S31E+R100N,GP_Gen,6.4 nM,6/6,0/18
T28P+S31E+R100K,GP_Gen,2.3 nM,6/6,0/18
T28S+S31D+A101T+S107L,GPLM_Gen,710 pM,6/6,0/18
T28S+S63Q,Ctrl,16 nM,6/6,0/18
G26M+T28S+S53A,GP_Gen,17 nM,6/6,0/18
T28Q+S31E+G61S+A101Q+S107T,GP_Gibbs,2.9 nM,6/6,0/18
T28D+A101E,GPLM_Gen,1.6 nM,6/6,0/18
T28G+G61I+S63Q+R100Q+A101T,GP_Gibbs,48 nM,2/6,0/18
S31D+A101T+D106I+S107Q,GPLM_HC,17 µM,1/6,0/18
G61A+S63D+R100Q+S107L,GP_Gen,5.0 nM,6/6,0/18
N30E+G61A+S63R,GPLM_Gen,26 nM,2/6,0/18
R100K+A102I+T104H,Ctrl,nd,0/6,0/18
T28E+R100Q+A101V+S107L,GP_Gibbs,4.3 nM,6/6,0/18
S31Q+R56I+G61S+G103P+T104F,Rand,130 pM,4/6,0/18
S53A+R100M+D106K,GPLM_HC,360 nM,6/6,1/18
G103D+D106S,Ctrl,nd,0/6,0/18
S31E+A101T+D106M,GPLM_Gen,nd,0/6,0/18
S31D+G61K+R100K+D106T,GP_HC,nd,0/6,0/18
T28E+S31D+F59M+G61I,GP_HC,49 nM,6/6,0/18
T28W+S31D+G61A+S63A+A101T,GP_Gibbs,16 nM,5/6,0/18
D62Q+T104I,Ctrl,nd,0/6,0/18
S31Q+G61A+A101H,GPLM_HC,10 nM,6/6,2/18
R100P+A101V+A102K+D106R,Ctrl,330 nM,3/6,0/18
T28D+T104I+D106W,GPLM_HC,nd,0/6,0/18
T28D+F59A+A102P+T104Y,Ctrl,nd,0/6,0/18
T28V+R100E,GPLM_Gen,6.7 nM,1/6,0/18
G26K+T28S+S31E+A101Q,GPLM_Gibbs,76 nM,6/6,0/18
D54Y+G61D+R100Q+A101L,Rand,nd,0/6,0/18
K65V+S107D,Ctrl,nd,0/6,0/18
G26S+T28N+G61A+A101T,GP_Gen,840 pM,6/6,1/18
S53A+A101N+D106S,Ctrl,46 nM,6/6,0/18
T28S+S31E+G61A,GPLM_Gen,2.2 nM,6/6,0/18
T28S+G61A+S63R+R100N,GPLM_Gen,32 nM,6/6,1/18
G61D+R100Q+A101L+G103T,Rand,660 pM,6/6,0/18
N30E+R56V+G103H,Ctrl,nd,0/6,0/18
G26H+T28S+A101T,GPLM_Gen,nd,0/6,0/18
T28G+S31E+G61T,GP_HC,1.1 nM,6/6,1/18
T28D+G61C+A101Q,GPLM_Gibbs,14 nM,6/6,0/18
G61T+R100K+A101L,GPLM_HC,23 nM,6/6,1/18
S31E+R56H+A101E+G103L+S107L,Ctrl,2.1 nM,6/6,0/18
S53A+F105Y,Ctrl+GPLM_HC,82 nM,6/12,0/36
F27Q+T28R+S31Q+R56L+G61S+R100S,Ctrl,600 nM,1/6,0/18
S31L+F105W+D106F,Ctrl,nd,0/6,0/18
T28V+S31D+F59M+G61I+S107Q,GP_HC,31 nM,4/6,0/18
T28S+S31D+F59M+A101T,GPLM_Gen,560 pM,6/6,0/18
S31E+R56M+G61S+A101T,GPLM_HC,1.4 nM,6/6,0/18
T28S+S63R+R100Q+S107T,GP_Gibbs,10 nM,6/6,1/18
T28A+G61D+R100Q+A101I,GP_HC,2.2 nM,3/6,0/18
T28D+R100K+A101I,Ctrl+GPLM_Gen,3.3 nM,11/12,0/36
G26K+T28N+G61A+A101L,GP_Gen,69 nM,6/6,1/18
G61D+S63N+R100K+A101L,GP_HC,150 nM,5/6,0/18
S53A+F59A+G99E+R100D+S107Q,Ctrl,nd,0/6,0/18
T28Q+S63N+A101T,GPLM_Gibbs,61 nM,6/6,0/18
T28S+S53A,Ctrl+GPLM_Gen,1.2 nM,12/12,0/36
I34G+R57G+F59S+T104P+D106T,Ctrl,nd,0/6,0/18
T28D+A101T+G103D,GPLM_HC,nd,0/6,0/18
A101R,Ctrl,nd,0/6,0/18
G61S+A102D,Ctrl,170 nM,1/6,1/18
S31E+D62E+G103V+S107A,GP_HC,nd,0/6,0/18
T28S+S31E+G61C+R100P+S107L,GP_HC,nd,0/6,0/18
F27R+S31E,Ctrl,nd,0/6,0/18
T28D+R100K+A101T+S107Y,GP_Gen,2.1 nM,6/6,0/18
T28S+R100Q,Ctrl+GPLM_Gen,12 nM,12/12,1/36
T28S+S31E+D62W+S63N+A101T,GP_Gibbs,12 nM,4/6,0/18
N30D+G61T,GPLM_Gen,18 nM,4/6,0/18
F27R+G99V+S107A,Ctrl,nd,0/6,0/18
S31E+R100H+S107F,GPLM_HC,9.5 nM,6/6,1/18
T28N+G61T+R100K,GPLM_Gibbs,4.7 nM,6/6,0/18
T28S+S31Q+G61K,GPLM_HC,4.5 nM,6/6,0/18
S31H+F59Q+G61I+D62H,Rand,nd,0/6,0/18
T28N+D106K,Ctrl,370 pM,5/6,0/18